In BindingDB's records for doi:10.1124/mol.64.6.1283 (Barrow Neurological Institute, 2003) one finds Ki data, which are given here for one compound.

Sequences of proteins named here, by UniProt entry; tags and fusion partners are left off. A change or cut given only in a name is not applied to a line headed by its entry.
UniProt P43681: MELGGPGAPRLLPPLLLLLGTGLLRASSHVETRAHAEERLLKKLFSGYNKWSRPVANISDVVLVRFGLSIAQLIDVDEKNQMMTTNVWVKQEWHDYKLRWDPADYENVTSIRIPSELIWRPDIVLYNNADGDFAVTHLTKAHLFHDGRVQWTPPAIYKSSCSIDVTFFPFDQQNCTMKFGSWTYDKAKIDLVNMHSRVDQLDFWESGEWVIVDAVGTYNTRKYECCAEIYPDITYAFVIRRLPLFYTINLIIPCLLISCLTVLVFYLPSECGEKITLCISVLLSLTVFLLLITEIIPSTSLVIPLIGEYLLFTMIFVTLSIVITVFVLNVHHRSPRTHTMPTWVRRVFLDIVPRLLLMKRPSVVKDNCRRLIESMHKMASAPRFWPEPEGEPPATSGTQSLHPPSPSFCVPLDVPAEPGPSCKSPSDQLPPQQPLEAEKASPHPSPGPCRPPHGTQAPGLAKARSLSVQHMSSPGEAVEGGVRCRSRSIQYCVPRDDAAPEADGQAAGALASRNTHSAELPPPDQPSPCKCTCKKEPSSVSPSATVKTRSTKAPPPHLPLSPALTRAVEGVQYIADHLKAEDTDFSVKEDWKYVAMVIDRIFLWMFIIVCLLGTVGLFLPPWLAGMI

As usually defined, the Ki is the dissociation constant of the complex between target and ligand, obtained from inhibition or displacement. Lower therefore signals higher affinity.

The assay addresses Neuronal acetylcholine receptor subunit alpha-4 (Homo sapiens, UniProt P43681).

As to `C[N+](C)(C)CCO` [2-hydroxy-N,N,N-trimethylethanaminium], the affinity, expressed as Ki, was 7 µM.
